Literature values in US4898729A, “Treatment of hypertension, compounds and compositions for antihypertension and diuresis” (priority 1983, dated 1990).

Columns and labels:
[1] = comparison with chlorothiazide having a value of 1; cited from earlier work
[2] = cited from earlier work

CN1C(CSCC(F)(F)F)Nc2cc(Cl)c(S(N)(=O)=O)cc2S1(=O)=O (stereo not drawn) [Polythiazide]
Approx. Natriuretic Activity [1]: 200
Range diuretic dose ([2]; Example 1 table): 4 to 8 mg
Daily Diuretic Dose (average minimum diuretic dose) ([2]; average daily dose): 8 mg
